We go through one molecule from ChEMBL document CHEMBL3124839, “Polyamine transport inhibitors: design, synthesis, and combination therapies with difluoromethylornithine” (J Med Chem, 2014).

Holding throughout (format): cell-based
Test [1] is filed under the species Homo sapiens. The test can be described thus: Inhibition of polyamine transport system in DFMO-treated human L3.6PL cells assessed as intracellular spermidine to spermine molar ratio at 7 uM after 48 hrs by HPLC analysis in presence of spermidine and aminoguanidine relative to control.
The species entered for test [2] is Homo sapiens. The test can be described thus: Inhibition of polyamine transport system in human L3.6PL cells assessed as intracellular spermidine to spermine molar ratio at 7 uM after 48 hrs by HPLC analysis in presence of spermidine and aminoguanidine relative to control.
The species entered for test [3] is Homo sapiens. The test can be described thus: Inhibition of polyamine transport system in human L3.6PL cells assessed as intracellular spermidine to spermine molar ratio at 7 uM after 48 hrs by HPLC analysis in presence of aminoguanidine relative to control.

As for `CNCCCCNCCCCNCc1cc(CNCCCCNCCCCNC)cc(CNCCCCNCCCCNC)c1.Cl`, the Ratio in the test listed under Homo sapiens [1] came to 0.23; in the test filed under Homo sapiens [2], 1.5; in the test listed under Homo sapiens [3] it was 1.5.
